The target in one data set is PI3Kα (Homo sapiens (Human), UniProt P42336). Briefly: Method 2 binding assay, PI3Kα kinase tracer 1710. To be noted: read-out: PI3Kα IC50.
Another data set deals with mTOR (Homo sapiens (Human), UniProt P42345). As to the kind of experiment: Method 2 binding assay, mTOR kinase tracer 314. As to conditions: read-out: mTOR IC50.
Data set [1] is described as follows: In vivo pharmacokinetics in rats, gavage (PO).
The nature of data set [2]: In vivo pharmacokinetics in rats, intravenous bolus injection (IV). To be noted: 2 mg/kg.

Protein sequences, listed by entry. Tags and fused reporters are not part of them.
UniProt P42336, whole entry: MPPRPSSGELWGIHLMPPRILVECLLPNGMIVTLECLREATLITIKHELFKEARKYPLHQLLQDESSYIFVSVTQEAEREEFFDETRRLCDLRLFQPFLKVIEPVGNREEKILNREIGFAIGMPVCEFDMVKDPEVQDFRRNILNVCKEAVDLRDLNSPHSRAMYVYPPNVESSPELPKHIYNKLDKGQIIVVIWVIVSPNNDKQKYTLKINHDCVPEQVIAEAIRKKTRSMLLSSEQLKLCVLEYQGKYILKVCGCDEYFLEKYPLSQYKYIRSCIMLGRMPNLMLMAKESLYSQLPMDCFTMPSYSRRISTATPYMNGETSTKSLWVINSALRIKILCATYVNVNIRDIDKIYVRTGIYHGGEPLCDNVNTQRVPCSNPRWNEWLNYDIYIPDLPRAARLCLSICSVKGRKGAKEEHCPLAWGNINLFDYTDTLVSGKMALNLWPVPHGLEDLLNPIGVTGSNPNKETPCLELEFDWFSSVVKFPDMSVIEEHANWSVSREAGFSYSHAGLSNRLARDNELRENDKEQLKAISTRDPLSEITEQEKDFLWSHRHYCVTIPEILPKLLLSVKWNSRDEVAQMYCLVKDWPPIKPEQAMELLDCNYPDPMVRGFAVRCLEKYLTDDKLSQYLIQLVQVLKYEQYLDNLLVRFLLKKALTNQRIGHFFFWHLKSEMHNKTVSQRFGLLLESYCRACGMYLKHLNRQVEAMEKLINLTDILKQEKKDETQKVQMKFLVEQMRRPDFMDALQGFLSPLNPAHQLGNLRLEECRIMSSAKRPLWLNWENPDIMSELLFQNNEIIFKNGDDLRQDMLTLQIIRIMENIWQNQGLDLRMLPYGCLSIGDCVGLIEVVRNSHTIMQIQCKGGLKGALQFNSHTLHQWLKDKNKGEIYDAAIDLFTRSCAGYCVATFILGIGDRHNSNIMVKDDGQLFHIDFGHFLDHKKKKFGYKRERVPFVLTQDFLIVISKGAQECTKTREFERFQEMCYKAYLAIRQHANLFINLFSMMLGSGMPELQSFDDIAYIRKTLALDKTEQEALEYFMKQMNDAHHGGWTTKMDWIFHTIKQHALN
UniProt P27986, whole entry partner: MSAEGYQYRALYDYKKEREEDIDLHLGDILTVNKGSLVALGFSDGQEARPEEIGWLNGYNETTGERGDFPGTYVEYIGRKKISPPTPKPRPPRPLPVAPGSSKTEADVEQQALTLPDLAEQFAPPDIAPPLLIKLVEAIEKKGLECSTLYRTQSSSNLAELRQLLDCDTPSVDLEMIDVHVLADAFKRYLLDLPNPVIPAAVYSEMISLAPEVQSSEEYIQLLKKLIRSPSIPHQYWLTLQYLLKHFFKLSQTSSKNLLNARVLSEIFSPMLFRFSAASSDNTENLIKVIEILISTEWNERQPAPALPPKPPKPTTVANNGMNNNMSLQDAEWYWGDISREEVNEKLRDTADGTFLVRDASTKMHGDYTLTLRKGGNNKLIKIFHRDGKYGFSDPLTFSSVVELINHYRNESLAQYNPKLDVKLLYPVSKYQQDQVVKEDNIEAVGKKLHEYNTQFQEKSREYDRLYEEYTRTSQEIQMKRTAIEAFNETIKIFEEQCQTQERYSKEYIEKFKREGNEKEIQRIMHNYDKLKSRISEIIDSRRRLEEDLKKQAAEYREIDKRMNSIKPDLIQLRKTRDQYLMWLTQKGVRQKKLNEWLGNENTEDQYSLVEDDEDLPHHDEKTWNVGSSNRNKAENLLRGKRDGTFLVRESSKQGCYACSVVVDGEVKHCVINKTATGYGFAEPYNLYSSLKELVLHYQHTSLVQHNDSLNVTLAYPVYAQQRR

This is an account of results in patent US9284315B2, “Three-ring PI3K and/or mTOR inhibitor” (XUANZHU PHARMA CO., LTD., priority 2011, dated 2016).

Only a part of the results on these compounds is given; other tests are left out.

The term IC50 denotes the concentration at which inhibition is half-maximal. Broadly, the AUC is concentration integrated over time. Read a high AUC as high exposure. As a reminder, the Cmax is the maximum level reached in the sampled fluid or tissue. Broadly, the Tmax is the time from dosing to the highest level. On to “9-(6-methoxypyridin-3-yl)-3-methyl-1-(piperidin-4-yl)-3,4-dihydropyrimido[5,4-c][1,5]naphthyridin-2(1H)-one hydrochloride”, for which the IC50 at PI3Kα came out at 8.6 nM. On mTOR, the IC50 was 91.9 nM. This substance returned a F % in data set [1] (PO 4 mg/kg vs IV 2 mg/kg) of 59%. Moreover, in data set [1] (PO, 4 mg/kg), the AUC was determined as 258 ng·h/mL, the Cmax came out at 46.8 ng/mL and the Tmax was 4.67 h. Also, in data set [2], the AUC turned out to be 217.7 ng·h/mL, the Cl_obs came to 123 mL/min/kg, the “T ½” value was 3.47 h and the Vss_obs stood at 36.26 L/kg.
